Laboratory results reported in ChEMBL document CHEMBL4825708, “GDC-9545 (Giredestrant): A Potent and Orally Bioavailable Selective Estrogen Receptor Antagonist and Degrader with an Exceptional Preclinical Profile for ER+ Breast Cancer” (J Med Chem, 2021).
Activity calls are given as the source filed them.

Amino acid sequences for entries named in this document (tags omitted).
UniProt P03372, whole entry: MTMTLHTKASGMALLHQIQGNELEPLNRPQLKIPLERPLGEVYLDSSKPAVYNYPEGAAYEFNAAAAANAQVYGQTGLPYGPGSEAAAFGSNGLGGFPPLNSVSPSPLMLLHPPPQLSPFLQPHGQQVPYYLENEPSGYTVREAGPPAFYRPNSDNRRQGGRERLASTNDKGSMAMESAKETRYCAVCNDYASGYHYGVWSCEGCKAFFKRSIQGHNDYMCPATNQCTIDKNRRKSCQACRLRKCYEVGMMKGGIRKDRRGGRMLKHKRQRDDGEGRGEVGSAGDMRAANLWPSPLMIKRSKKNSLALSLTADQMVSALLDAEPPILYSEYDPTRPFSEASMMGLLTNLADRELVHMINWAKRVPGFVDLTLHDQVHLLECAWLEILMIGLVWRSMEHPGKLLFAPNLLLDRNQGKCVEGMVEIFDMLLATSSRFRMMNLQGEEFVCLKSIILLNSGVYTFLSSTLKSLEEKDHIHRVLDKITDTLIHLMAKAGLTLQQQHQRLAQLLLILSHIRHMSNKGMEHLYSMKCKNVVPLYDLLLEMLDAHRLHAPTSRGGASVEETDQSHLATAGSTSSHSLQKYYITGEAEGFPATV

How the values were obtained:
Rattus norvegicus [1] = experiment: (§1) In vivo inverse agonist activity at estrogen receptor in CRL:CD(SD) rat assessed as appearance of tall columnar phenotype of epithelial cells in endometrium 10 mg/kg, po administered for 4 days and measured at 4 hr post last dose on day 4 by hematoxylin and eosin staining based assay relative to control; assay type: functional, organism-based; settings: time 4.0 day
HCI-013 [2] = experiment: Antitumor activity against patient-derived human HCI-013 cells harboring ESR1 Y537S mutant xenografted in NOD SCID mouse assessed as tumor regression at 100 mg/kg, po administered once daily for 28 to 29 days by calipers method; assay type: functional, organism-based; settings: time 28-29 day
HCI-013 [3] = experiment: (§2) Antitumor activity against patient-derived human HCI-013 cells harboring ESR1 Y537S mutant xenografted in NOD SCID mouse assessed as reduction in tumor growth at 100 mg/kg, po administered once daily for 28 days by calipers method; assay type: functional, organism-based; settings: time 28.0 day
HCI-013 [4] = experiment: as §2, with “50” for “100”, “sc” for “po”, “daily at day 1,3 and 8 followed by 25 mg/kg dosed twice weekly” for “daily”, “for 2 to 4 weeks and measured after” for “for”; assay type: functional, organism-based
MCF7 = experiment: Antitumor activity against human MCF7 cells xenografted in nude mouse assessed as reduction in tumor growth at 50 mg/kg, sc administered once daily at day 1,3 and 8 followed by 25 mg/kg dosed twice weekly for 2 to 4 weeks cotreated with palbociclib and measured after 28 days by calipers method; assay type: functional, organism-based
Estrogen receptor [5] = target: T1, Estrogen receptor (Homo sapiens, UniProt P03372); experiment: Induction of estrogen receptor degradation in human CAMA1 cells at 0.1 to 1000 nM incubated for 24 hrs by Western blot analysis; assay type: cell-based; settings: CAMA-1, dose 0.1-1000 nM
Estrogen receptor [6] = target: T1, Estrogen receptor; experiment: Induction of estrogen receptor degradation in human EFM19 cells at 0.1 to 1000 nM incubated for 24 hrs by Western blot analysis; assay type: cell-based; settings: EFM-19, dose 0.1-1000 nM
Estrogen receptor [7] = target: T1, Estrogen receptor; experiment: Induction of estrogen receptor degradation in human MDA-MB-134-VI cells at 0.1 to 1000 nM incubated for 24 hrs by Western blot analysis; assay type: cell-based; settings: dose 0.1-1000 nM
Estrogen receptor [8] = target: T1, Estrogen receptor; experiment: Induction of estrogen receptor degradation in human MDA-MB-330 cells at 0.1 to 1000 nM incubated for 24 hrs by Western blot analysis; assay type: cell-based; settings: dose 0.1-1000 nM
Estrogen receptor [9] = target: T1, Estrogen receptor; experiment: Induction of estrogen receptor degradation in human T-47D cells at 0.1 to 1000 nM incubated for 24 hrs by Western blot analysis; assay type: cell-based; settings: T47D, dose 0.1-1000 nM
Rattus norvegicus [10] = experiment: In vivo inverse agonist activity at estrogen receptor in CRL:CD(SD) rat assessed as decrease in uterine wet weight to body weight ratio at 10 mg/kg, po administered for 4 days and measured at 4 hr post last dose on day 4 relative to control; assay type: functional, organism-based; settings: time 4.0 day
Rattus norvegicus [11] = experiment: In vivo inverse agonist activity at estrogen receptor in CRL:CD(SD) rat assessed as decrease in uterine wet weight to body weight ratio at 0.1 to 10 mg/kg, po administered for 4 days and measured at 4 hr post last dose on day 4 relative to control; assay type: functional, organism-based; settings: dose 0.1-10 mg/kg, time 4.0 day
Rattus norvegicus [12] = experiment: as §1, with “endometrium at 0.1 to” for “endometrium”; assay type: functional, organism-based; settings: dose 0.1-10 mg/kg, time 4.0 day
HCI-013 [13] = experiment: Antitumor activity against patient-derived human HCI-013 cells harboring ESR1 Y537S mutant xenografted in NOD SCID mouse assessed as reduction in tumor growth at 0.1 to 1 mg/kg, po administered once daily for 29 days by calipers method; assay type: functional, organism-based; settings: dose 0.1-1 mg/kg, time 29.0 day
Mus musculus = experiment: Reduction in ERalpha level in tumor of nude mouse xenografted with human HCI-013 cells harboring ESR1Y537S mutant at 1 to 10 mg/kg, po administered once daily for 3 days by calipers method; assay type: functional, organism-based; settings: dose 1-10 mg/kg, time 3.0 day

Measured: Activity

CC1=C(c2cccc(O)c2)[C@H](c2ccc(OCCN3CC(CF)C3)cc2)Oc2ccc(O)cc21
active: Rattus norvegicus [1] | HCI-013 [2]

CC/C(=C(/c1ccc(/C=C/C(=O)O)cc1)c1ccc2[nH]ncc2c1)c1ccc(F)cc1Cl [BRILANESTRANT]
active: HCI-013 [3]

C[C@]12CC[C@@H]3c4ccc(O)cc4C[C@@H](CCCCCCCCC[S+]([O-])CCCC(F)(F)C(F)(F)F)[C@H]3[C@@H]1CC[C@@H]2O (stereo not given in full) [FULVESTRANT]
active: HCI-013 [4] | MCF7

C[C@@H]1Cc2c([nH]c3ccccc23)[C@@H](c2c(F)cc(NC3CN(CCCF)C3)cc2F)N1CC(F)(F)CO [GIREDESTRANT]
active: Estrogen receptor [5] | Estrogen receptor [6] | Estrogen receptor [7] | Estrogen receptor [8] | Estrogen receptor [9] | Rattus norvegicus [10] | Rattus norvegicus [11] | Rattus norvegicus [12] | HCI-013 [13] | Mus musculus
